These results are taken from ChEMBL document CHEMBL4725358 (J Med Chem, 2020).

The chains behind the UniProt entries cited, without tags or fusion partners. Where a name states a change or a piece, a line headed by the entry shows the natural chain unless it says otherwise.
UniProt Q9R1K6: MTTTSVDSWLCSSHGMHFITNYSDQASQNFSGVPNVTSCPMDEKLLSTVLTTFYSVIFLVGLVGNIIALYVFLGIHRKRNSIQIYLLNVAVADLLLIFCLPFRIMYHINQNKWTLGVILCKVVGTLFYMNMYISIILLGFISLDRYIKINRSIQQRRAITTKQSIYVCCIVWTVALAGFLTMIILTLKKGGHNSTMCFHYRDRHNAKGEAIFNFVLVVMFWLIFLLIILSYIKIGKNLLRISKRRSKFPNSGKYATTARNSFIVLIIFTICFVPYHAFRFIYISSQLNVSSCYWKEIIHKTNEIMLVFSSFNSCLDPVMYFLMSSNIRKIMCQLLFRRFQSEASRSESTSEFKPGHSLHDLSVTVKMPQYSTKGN
UniProt Q8BFU7: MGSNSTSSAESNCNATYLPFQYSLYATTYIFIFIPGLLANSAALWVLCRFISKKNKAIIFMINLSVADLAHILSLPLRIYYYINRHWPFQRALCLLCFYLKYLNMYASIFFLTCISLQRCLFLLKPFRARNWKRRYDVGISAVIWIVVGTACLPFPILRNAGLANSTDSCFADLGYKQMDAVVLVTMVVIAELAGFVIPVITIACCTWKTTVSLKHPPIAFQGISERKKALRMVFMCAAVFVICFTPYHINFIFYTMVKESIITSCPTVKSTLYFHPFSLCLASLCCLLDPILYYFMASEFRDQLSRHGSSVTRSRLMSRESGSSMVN

What all share (format): cell-based
The target of assay [1] is Probable G-protein coupled receptor 34 (Mus musculus) (UniProt Q9R1K6). In words: Agonist activity at mouse GPR34 expressed in HEK293 cells co-transfected with AP-TGFalpha/Galphaq/i1 assessed as induction of ectodomain shedding of membrane bound AP-TGFalpha after 1 hr by p-NPP substrate based microplate reader analysis relative to control. In outline:
(§1)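 HEK293 cells transiently transfected with AP-TGFα, chimeric Gα and mouse GPR34 vectors, then treated with compound. Empty-vector cells (AP-TGFα plus chimeric Gα) served as background. Receptor-specific AP-TGFα release was taken after subtracting that background, and concentration-response curves gave EC50 and Emax. Mean and SEM of 3−8 independent experiments.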

The target in assay [2] is Putative P2Y purinoceptor 10 (Mus musculus) (UniProt Q8BFU7). The experiment in a line: Agonist activity at mouse P2Y10 expressed in HEK293 cells co-transfected with AP-TGFalpha/Galphaq/i1 assessed as induction of ectodomain shedding of membrane bound AP-TGFalpha after 1 hr by p-NPP substrate based microplate reader analysis relative to control. The essentials:
(§2)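 Run the same way as the GPR34 shedding assay, but with a mouse P2Y10 expression vector in HEK293 cells alongside AP-TGFα and chimeric Gα. Receptor-specific AP-TGFα release was found by subtracting the empty-vector background. EC50 and Emax came from concentration-response curves. Mean and SEM of 3−8 independent experiments.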

Assay [3] has as its target T1, G protein-coupled receptor 34a (Danio rerio) (UniProt Q6XCC7).
T1 sequence (whole entry): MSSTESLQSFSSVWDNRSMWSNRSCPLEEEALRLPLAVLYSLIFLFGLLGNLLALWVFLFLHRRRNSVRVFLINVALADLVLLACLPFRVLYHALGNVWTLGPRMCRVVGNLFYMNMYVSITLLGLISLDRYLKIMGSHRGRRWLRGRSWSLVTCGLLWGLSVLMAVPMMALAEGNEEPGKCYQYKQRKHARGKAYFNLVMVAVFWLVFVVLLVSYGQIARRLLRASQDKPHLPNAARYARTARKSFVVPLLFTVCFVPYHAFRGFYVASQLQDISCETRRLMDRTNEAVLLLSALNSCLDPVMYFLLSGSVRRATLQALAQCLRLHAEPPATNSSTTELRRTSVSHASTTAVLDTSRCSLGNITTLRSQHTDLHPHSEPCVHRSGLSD
In words: Agonist activity at zebrafish GPR34 type a expressed in HEK293 cells co-transfected with AP-TGFalpha/Galphaq/i1 assessed as induction of ectodomain shedding of membrane bound AP-TGFalpha after 1 hr by p-NPP substrate based microplate reader analysis relative to control.

Assay [4] concerns the target T2, G protein-coupled receptor 34b (Danio rerio) (UniProt B0S6P9).
T2 sequence (whole entry): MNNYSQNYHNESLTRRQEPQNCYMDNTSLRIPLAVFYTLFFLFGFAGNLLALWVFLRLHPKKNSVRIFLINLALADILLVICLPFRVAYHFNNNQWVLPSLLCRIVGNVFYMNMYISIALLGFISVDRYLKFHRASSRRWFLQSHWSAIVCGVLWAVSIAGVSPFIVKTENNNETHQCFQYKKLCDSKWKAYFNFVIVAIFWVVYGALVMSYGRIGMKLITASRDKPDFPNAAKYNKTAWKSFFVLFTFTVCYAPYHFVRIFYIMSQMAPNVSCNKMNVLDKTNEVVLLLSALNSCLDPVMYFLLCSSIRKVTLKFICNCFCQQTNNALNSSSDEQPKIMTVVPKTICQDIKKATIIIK
The experiment in a line: Agonist activity at zebrafish GPR34 type b expressed in HEK293 cells co-transfected with AP-TGFalpha/Galphaq/i1 assessed as induction of ectodomain shedding of membrane bound AP-TGFalpha after 1 hr by p-NPP substrate based microplate reader analysis relative to control.

Assay [5] addresses Probable G-protein coupled receptor 34 (Mus musculus) (UniProt Q9R1K6). In words: Agonist activity at mouse GPR34 expressed in HEK293 cells co-transfected with AP-TGFalpha/Galphaq/i1 assessed as induction of ectodomain shedding of membrane bound AP-TGFalpha after 1 hr by p-NPP substrate based microplate reader analysis relative to positive control. The following applies: filed as agonist. The essentials: as §1

The target of assay [6] is Putative P2Y purinoceptor 10 (Mus musculus) (UniProt Q8BFU7). In words: Agonist activity at mouse P2Y10 expressed in HEK293 cells co-transfected with AP-TGFalpha/Galphaq/i1 assessed as induction of ectodomain shedding of membrane bound AP-TGFalpha after 1 hr by p-NPP substrate based microplate reader analysis relative to positive control. The following applies: filed as agonist. In outline: as §2

The source made the active and inactive calls. The rule behind the calls is not given here.

A word on the Emax: it is the size of the effect at its maximum, as opposed to the concentration needed.

Turning to `CCOC[C@H](COC(=O)CCc1ccccc1OCc1cccc(Oc2ccccc2)c1)OP(=O)(O)OC[C@H](N)C(=O)O`, the Emax in assay [1] is 12.1%; in assay [4], 29%. Further, the Emax entry in assay [2] and in assay [3] was “inactive” in each case.
Regarding `CCCCCCCC/C=C\CCCCCCCC(=O)OC[C@@H](O)COP(=O)(O)OC[C@H](N)C(=O)O`, the Emax in assay [1] was 8.3%. Further, the fold change (FC) in assay [5] was found to be 0.33; in assay [6] it was 0.083.
